Experimental data as given in patent US7115637B2.

Protein sequences, listed by entry. Tags and fused reporters are not part of them.
UniProt Q16539, whole entry: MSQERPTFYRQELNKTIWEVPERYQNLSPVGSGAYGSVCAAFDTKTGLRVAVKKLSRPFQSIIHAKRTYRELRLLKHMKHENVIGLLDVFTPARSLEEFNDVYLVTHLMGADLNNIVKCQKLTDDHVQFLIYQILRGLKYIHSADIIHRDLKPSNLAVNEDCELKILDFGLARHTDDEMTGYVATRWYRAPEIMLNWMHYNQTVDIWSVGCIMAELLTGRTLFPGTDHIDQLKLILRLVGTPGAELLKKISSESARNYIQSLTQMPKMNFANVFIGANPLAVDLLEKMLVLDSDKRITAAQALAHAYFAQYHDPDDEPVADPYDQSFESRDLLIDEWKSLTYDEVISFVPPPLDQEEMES

What was measured:
[1] = tested on: TNF production in LPS-stimulated PBMCs; test: Inhibition of TNF production in LPS-stimulated PBMCs; details: read-out: Cell TNF IC50, 4 ng/ml LPS, ELISA TNF-α
Experimental: (§1) C. Inhibition of IL-1, TNF, IL-6 and IL-8 Production in LPS-Stimulated PBMCs
(§2) Inhibitors were serially diluted in DMSO from a 20 mM stock. At least 6 serial dilutions were prepared. Then 4× inhibitor stocks were prepared by adding 4 μl of an inhibitor dilution to 1 ml of RPMI1640 medium/10% fetal bovine serum. The 4× inhibitor stocks contained inhibitor at concentrations of 80 μM, 32 μM, 12.8 μM, 5.12 μM, 2.048 μM, 0.819 μM, 0.328 μM, 0.131 μM, 0.052 μM, 0.021 μM etc. The 4× inhibitor stocks were pre-warmed at 37° C. until use.
(§3) Fresh human blood buffy cells were separated from other cells in a Vacutainer CPT from Becton & Dickinson (containing 4 ml blood and enough DPBS without Mg^2+/Ca^2+ to fill the tube) by centrifugation at 1500×g for 15 min. […] The total cell number was determined using a Neubauer Cell Chamber and the cells were adjusted to a concentration of 4.8×10^6 cells/ml in cell culture medium (RPMI1640 supplemented with 10% fetal bovine serum). […]
(§4) The next day the cells were mixed on a shaker for 3–5 minutes before centrifugation at 500×g for 5 minutes. Cell culture supernatants were harvested and analyzed by ELISA for levels of IL-1b (R & D Systems, Quantikine kits, #DBL50), TNF-α (BioSource, #KHC3012), IL-6 (Endogen, #EH2-IL6) and IL-8 (Endogen, #EH2-IL8) according to the instructions of the manufacturer. […]

[2] = tested on: TNF production in whole blood; test: Inhibition of TNF production in LPS-stimulated whole blood; details: read-out: WB TNF IC50, 4 ng/ml LPS, ELISA TNF-α
Experimental: as §1, §2
Alternatively, whole blood containing an anti-coagulant was used directly in the assay.
100 μl of cell suspension or whole blood were placed in each well of a 96-well cell culture plate. Then 50 μl of the 4× inhibitor stock was added to the cells. Finally, 50 μl of a lipopolysaccharide (LPS) working stock solution (16 ng/ml in cell culture medium) was added to give a final concentration of 4 ng/ml LPS in the assay. […]
as §4

[3] = tested on: IL-1 production in LPS-stimulated PBMCs; test: Inhibition of IL-1 production in LPS-stimulated PBMCs; details: read-out: Cell IL-1 IC50, 4 ng/ml LPS, ELISA IL-1b
Experimental: as §1, §2, §3, §4

[4] = target: activated p38 (Homo sapiens, UniProt Q16539); test: Inhibition of phosphorylation of EGF receptor peptide (kinase assay); details: read-out: Kinase IC50; activated p38 5 nM, EGF receptor peptide 200 μM, ATP 100 μM, HPLC
Experimental: A. Inhibition of Phosphorylation of EGF Receptor Peptide
This assay was carried out in the presence of 10 mM MgCl2, 25 mM β-glycerophosphate, 10% glycerol and 100 mM HEPES buffer at pH 7.6. For a typical IC50 determination, a stock solution was prepared containing all of the above components and activated p38 (5 nM). The stock solution was aliquotted into vials. A fixed volume of DMSO or inhibitor in DMSO (final concentration of DMSO in reaction was 5%) was introduced to each vial, mixed and incubated for 15 minutes at room temperature. EGF receptor peptide, […], a phosphoryl acceptor in p38-catalyzed kinase reaction (1), was added to each vial to a final concentration of 200 μM. The kinase reaction was initiated with ATP (100 μM) and the vials were incubated at 30° C. After 30 minutes, the reactions were quenched with equal volume of 10% trifluoroacetic acid (TFA).
The phosphorylated peptide was quantified by HPLC analysis. Separation of phosphorylated peptide from the unphosphorylated peptide was achieved on a reverse phase column (Deltapak, 5 μm, C18 100D, Part no. 011795) with a binary gradient of water and acteonitrile, each containing 0.1% TFA. IC50 (concentration of inhibitor yielding 50% inhibition) was determined by plotting the percent (%) activity remaining against inhibitor concentration.

Cc1cc(F)ccc1-c1nc(N(C(N)=O)c2c(F)cccc2F)ccc1CO
IC50 [1]: 10 nM | IC50 [2]: 90 nM

Cc1cc(F)ccc1-c1nc(N(C(N)=O)c2c(Cl)cccc2Cl)ccc1CO
IC50 [3]: 20 nM | IC50 [4]: 2 nM | IC50 [1]: 50 nM
